PubChem BioAssay (NCI)
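96-well plates; 48 h exposure; 5 concentrations. Endpoints by linear interpolation between flanking doses. Not reached: highest tested concentration assigned. GI50 = concentration required for 50% inhibition of growth. TGI: concentration producing complete growth inhibition.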

System: MDA-MB-468 breast
Test: NCI-60 cell line screen, 48 h

O=[N+]([O-])c1cc([N+](=O)[O-])c(Nc2ccc(Cl)cc2)c([N+](=O)[O-])c1
GI50: 1.39 µM
TGI: 5.32 µM
